Our source for the Activity values is ChEMBL document CHEMBL5705890, “Antitumor activity of an allosteric inhibitor of centromere-associated protein-E” (Proc Natl Acad Sci U S A, 2010).

For one experiment, the system named is COLO 201. As to the kind of experiment: Anticancer activity against human COLO201 cells assessed as cell doubling measured for 72 hrs by DAPI staining based analysis. Format: functional.
Another experiment has as its system KM12. In words: Anticancer activity against human KM12 cells assessed as cell doubling measured for 72 hrs by DAPI staining based analysis. Type of experiment: functional.

With `CC(C)Oc1ccc(C(=O)N[C@H](CNC(=O)CN(C)C)Cc2ccc(-c3cn4cccc([C@H](C)O)c4n3)cc2)cc1Cl` [GSK-923295A], the Activity in the experiment on COLO 201 is recorded as 3.09; in the experiment with KM12, 3.1.
